Our source for the IC50 values is ChEMBL document CHEMBL3351765, “Recent progress in sodium channel modulators for pain” (Bioorg Med Chem Lett, 2014).

Chains of the proteins cited; added tags and fusions are not shown.
UniProt Q14524, whole entry: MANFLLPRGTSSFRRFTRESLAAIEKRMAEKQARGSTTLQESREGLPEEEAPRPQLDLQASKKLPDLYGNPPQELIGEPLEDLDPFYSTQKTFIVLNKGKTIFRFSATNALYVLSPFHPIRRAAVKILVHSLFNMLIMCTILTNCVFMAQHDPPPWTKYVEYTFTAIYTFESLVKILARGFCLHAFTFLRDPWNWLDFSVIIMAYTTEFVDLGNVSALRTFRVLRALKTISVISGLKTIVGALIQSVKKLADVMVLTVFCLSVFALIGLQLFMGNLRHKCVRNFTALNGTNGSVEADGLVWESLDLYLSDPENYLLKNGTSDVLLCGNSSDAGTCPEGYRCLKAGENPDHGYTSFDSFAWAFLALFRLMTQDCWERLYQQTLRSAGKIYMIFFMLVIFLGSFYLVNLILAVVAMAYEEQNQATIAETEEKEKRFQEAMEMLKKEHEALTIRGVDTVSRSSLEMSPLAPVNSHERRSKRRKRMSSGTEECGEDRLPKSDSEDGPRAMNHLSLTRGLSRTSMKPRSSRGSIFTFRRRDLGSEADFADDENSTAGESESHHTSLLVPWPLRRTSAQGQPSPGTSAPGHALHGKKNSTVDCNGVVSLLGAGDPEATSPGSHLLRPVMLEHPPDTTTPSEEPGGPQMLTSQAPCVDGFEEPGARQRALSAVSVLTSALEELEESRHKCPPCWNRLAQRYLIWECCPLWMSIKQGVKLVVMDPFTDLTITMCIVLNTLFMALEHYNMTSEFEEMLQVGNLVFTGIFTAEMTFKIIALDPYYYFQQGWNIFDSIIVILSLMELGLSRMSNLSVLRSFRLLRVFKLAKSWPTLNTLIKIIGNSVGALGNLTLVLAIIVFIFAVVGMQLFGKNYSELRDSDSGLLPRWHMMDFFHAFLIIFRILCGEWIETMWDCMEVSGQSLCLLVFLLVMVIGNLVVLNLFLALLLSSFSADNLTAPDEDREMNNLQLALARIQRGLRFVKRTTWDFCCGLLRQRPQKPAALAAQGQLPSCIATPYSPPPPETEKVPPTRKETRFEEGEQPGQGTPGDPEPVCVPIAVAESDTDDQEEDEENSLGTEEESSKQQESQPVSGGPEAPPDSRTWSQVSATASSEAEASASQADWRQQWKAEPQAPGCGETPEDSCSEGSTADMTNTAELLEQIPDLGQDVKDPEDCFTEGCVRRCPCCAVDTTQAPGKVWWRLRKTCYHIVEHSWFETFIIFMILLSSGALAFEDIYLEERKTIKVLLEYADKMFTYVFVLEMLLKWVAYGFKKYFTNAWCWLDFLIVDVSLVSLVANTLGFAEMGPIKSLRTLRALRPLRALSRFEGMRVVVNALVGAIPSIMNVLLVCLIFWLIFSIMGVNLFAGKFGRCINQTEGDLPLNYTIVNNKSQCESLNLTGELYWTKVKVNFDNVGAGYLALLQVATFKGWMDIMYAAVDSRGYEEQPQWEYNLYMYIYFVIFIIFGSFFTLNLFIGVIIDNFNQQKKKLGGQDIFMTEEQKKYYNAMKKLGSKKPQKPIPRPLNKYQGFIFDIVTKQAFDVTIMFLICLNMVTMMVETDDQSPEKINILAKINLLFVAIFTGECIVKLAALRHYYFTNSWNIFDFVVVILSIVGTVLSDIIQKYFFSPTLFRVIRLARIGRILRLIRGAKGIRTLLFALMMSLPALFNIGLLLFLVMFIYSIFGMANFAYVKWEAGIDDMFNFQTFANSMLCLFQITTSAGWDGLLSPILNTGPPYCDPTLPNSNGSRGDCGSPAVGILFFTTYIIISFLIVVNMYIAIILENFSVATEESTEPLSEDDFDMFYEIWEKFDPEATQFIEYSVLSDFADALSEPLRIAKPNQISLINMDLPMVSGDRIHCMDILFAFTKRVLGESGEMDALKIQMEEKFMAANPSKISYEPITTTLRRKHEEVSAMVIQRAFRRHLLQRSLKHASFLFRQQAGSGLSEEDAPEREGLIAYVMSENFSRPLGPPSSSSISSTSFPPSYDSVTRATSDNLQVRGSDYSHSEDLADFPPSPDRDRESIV

This assay deals with Sodium channel protein type 5 subunit alpha (Homo sapiens, UniProt Q14524). Description: Inhibition of Nav1.5 (unknown origin).

A value given as a limit tells only on which side of the number the result lay.

Consider `O=S(=O)(Nc1ncns1)c1cc(F)c(OC[C@@H]2CNCC[C@H]2c2ccc(Cl)cc2)cc1F`, for which the half-inhibitory concentration (IC50) was > 10 µM.
